## Apparent affinities of Ab-91 variants for a coronavirus HR2 peptide

Reference: Engelhart et al. 2022, doi:10.1038/s41597-022-01779-4. File: FLAb, binding data.

All variants were tested on one target, the spike HR2 peptide PDVDLGDISGINAS (SARS-CoV-2).

Parent: Ab-91, a human scFv built as VL, three GGGGS repeats, VH. Only the CDRs of the heavy chain vary.
VL: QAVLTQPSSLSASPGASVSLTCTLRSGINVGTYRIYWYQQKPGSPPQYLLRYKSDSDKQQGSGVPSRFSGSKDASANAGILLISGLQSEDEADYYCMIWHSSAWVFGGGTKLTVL
VH: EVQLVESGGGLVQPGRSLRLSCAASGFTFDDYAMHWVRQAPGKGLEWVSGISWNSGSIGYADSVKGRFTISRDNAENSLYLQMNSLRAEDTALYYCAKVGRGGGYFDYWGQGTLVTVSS

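The parent was found by panning a naive human phage display library on the peptide. AAYL51 was designed without a model: most single CDR substitutions and a random sample of double and triple ones. AlphaSeq pools MATa yeast showing the antibodies with MATalpha yeast showing the peptide. Pairs that bind mate more often; barcode pairs of the diploids are counted by sequencing. The ratio of observed to expected reads was calibrated, replicate by replicate, on BCL2-family standards whose Kd was known from biolayer interferometry. Each pool was mated in three replicate cultures.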

The parent's heavy chain CDRs are GFTFDDYAMH, GISWNSGSIGYADSVK, VGRGGGYFDY; each variant's own CDRs replace them letter for letter.
Numbers give log10(Kd / nM), so 0 is 1 nM and 3 is 1 µM. Smaller is tighter.
A mean of the replicates is given; it leaves out those without a signal.
"nd" means that the variant was in the library but no mating with the target was seen in any replicate; the authors take this as a sign of poor binding, and no number exists.
In this assay the parent's reference entry averaged 1.86; its copy inside this library read 0.88.
Empty control strains, which show no peptide, gave a signal in 21% of pairings with library AAYL51; the median was 4.54 and 95% of these signals were weaker than 3.26. No background was subtracted.

CDR-H1,CDR-H2,CDR-H3,"log10 Kd (nM), mean",replicates with signal
GFTFDKYAMH,GISWNSGSIGYAWSVK,VGRGGGYFDY,1.36,3 of 3
GFTCDDYAMH,GISWNSGSIGYADSVK,VGHGDGYFDY,nd,0 of 3
GFQFDDPAMH,GISWNSGSIGYADSVK,VGRGGGYFDY,4.72,3 of 3
GFTFDDYAMH,MISWWSGSIGYADSVK,VGRCGGYFDY,nd,0 of 3
GFTFDHAAMH,GISWNSGSIGYADMVK,VGRGGGYFDY,1.18,3 of 3
GFTFDDYAMH,GISWNSGSIGGADSVK,PGRGGWYFDY,5.78,1 of 3
GFTFDDYFMH,GISWNTGYIGYADSVK,VGRGGGYFDY,nd,0 of 3
GFTFDDYAMH,GISPNSGSIGYADSVK,VGRGGGGLDY,1.01,3 of 3
GLTFDDYAMH,GISWNSGSIGYADSVA,VGRGGGYFDY,nd,0 of 3
GFTFDDYAMH,GISNNSGSIGYCDSVK,VGRGGGYFAY,4.67,2 of 3
GFTFDHYAMH,GISWNSGSIGYADSCK,HGRGGGYFDY,nd,0 of 3
GFTFDDYAMH,GISWNSGSIGYADSKK,VGRLGGYFWY,nd,0 of 3
GFTFDDYAMH,GISWNSGVIHYADSVK,VGRGGGYNDY,4.98,3 of 3
GFTFDKYAMH,GISWNSGSIGYADSVK,VGRGGGRRDY,nd,0 of 3
GFTADDYAMH,QISWNSGSIGYADSVK,VGRGGGYFDY,nd,0 of 3
GFKSDDYHMH,GISWNSGSIGYADSVK,VGRGGGYFDY,4.53,1 of 3
GFTFDDGAMH,GISWNEGSIGYADSVK,VGRAGGYFDY,4.88,3 of 3
GFTFDDYAMK,GISWNLGSIGYADSVK,VGRGGGYFQY,4.03,2 of 3
MFTFDDYAMH,GISWNSGSIGYADIVK,VNRGGGYFDY,nd,0 of 3
GFTFDGYAMH,RISWNSGSIGYATSVK,VGRGGGYFDY,nd,0 of 3
GQTFDDYAMH,WISWNSGSIGYADSVK,VGRGLGYFDY,4.11,1 of 3
GFTFDDYAMH,GISWNSGNIGYARSIK,VGRGGGYFDY,4.21,2 of 3
KFTFDDYASH,GISWNSGSIGYADSVK,VGFGGGYFDY,nd,0 of 3
GFTFDDYAMA,GISWNSGSIGYADSVK,VGRAGGYFDQ,nd,0 of 3
GFTFDDYAMH,GISWNSGSIGVADIVK,VGRGGGNFDY,2.70,3 of 3
GFTFDDYAMH,GISWNSGSIGYADSVK,VGRPKGYFDY,4.19,1 of 3
GFTFLDYAMH,GISWNSGSIGYADCVK,VGRGGTYFDY,3.76,1 of 3
GFTFDDYAMH,GISWNSGSIHYADMVK,VRRGGGYFDY,3.88,1 of 3
GFTFDDYAMH,GISWNSGSIGYADSVG,VGRRGGYGDY,4.11,2 of 3
GPTFDDYAMH,GISWNSGSIGYADSVK,VGREGGYFDY,3.89,2 of 3
GFWFDDYAMH,GISWNSGSIGYADSVK,SGRGGTYFDY,2.98,1 of 3
GFTFDDCAMH,CISWNKGSIGYADSVK,VGRGGGYFDY,5.57,1 of 3
CFTFDDYAMH,GISWLSGSIGYADSVK,VGRGGPYFDY,nd,0 of 3
GFTFGDYVMH,GISWNSGSIGYADSVY,VGRGGGYFDY,nd,0 of 3
GFTFDDYASH,GISWNSGSIGYADSVK,VGRGIGYFDY,4.87,2 of 3
GFMFDDLAMH,GISMNSGSIGYADSVK,VGRGGGYFDY,nd,0 of 3
GFTFDDYAMH,GISWNSGSLGFADSVK,VGRGGGYFDY,3.84,2 of 3
MFTFDDYAMH,GISWNSGSIGYADRVK,VGRGGGYQDY,4.54,2 of 3
GFTFDDYAMH,GISSNSLSIGAADSVK,VGRGGGYFDY,3.20,2 of 3
GFTFDDYAMG,GISWNSGSIGYADSSK,VGRGGGYFDY,5.18,1 of 3
GFTFDDYAMH,GISWNSGSIGSADPVK,VGRGGGYFCY,nd,0 of 3
GQTFDDYAMH,GISWDSGIIGYADSVK,VGRGGGYFDY,nd,0 of 3
GFTFDDYAMH,GISWDSHSIGYADSNK,VGRGGGYFDY,nd,0 of 3
VFTFDDYAMH,GISWNSGSIGYADSVY,VGRGGGYFDY,nd,0 of 3
GFTFDDYAMH,GISFNSGSIGYADSVK,VGRPGGWFDY,5.31,1 of 3

For reference, 7 entries of the list once more:

CDR-H1,CDR-H2,CDR-H3,"log10 Kd (nM), mean",replicates with signal
GFTFDDYAMH,GISNNSGSIGYCDSVK,VGRGGGYFAY,4.67,2 of 3
GFTFDHYAMH,GISWNSGSIGYADSCK,HGRGGGYFDY,nd,0 of 3
GFTFDDYAMH,GISWNSGSIGGADSVK,PGRGGWYFDY,5.78,1 of 3
MFTFDDYAMH,GISWNSGSIGYADRVK,VGRGGGYQDY,4.54,2 of 3
GFTADDYAMH,QISWNSGSIGYADSVK,VGRGGGYFDY,nd,0 of 3
GQTFDDYAMH,WISWNSGSIGYADSVK,VGRGLGYFDY,4.11,1 of 3
KFTFDDYASH,GISWNSGSIGYADSVK,VGFGGGYFDY,nd,0 of 3